Results on one substance are retold here after patent US20180087023A1, “METHOD OF PRODUCING BIOPRODUCTS” (White Dog Labs, Inc., priority 2015, published 2018).

A short description of data set [1]: Single-stage extraction of 2% aqueous bioproduct solutions with extractant (Examples 1-9). It counts as physicochemical. The procedure:
Extraction of various bioproducts with an extractant composed of 80% 1-butene and 20% dimethylether (DME) 100 grams (g) of aqueous solutions of various bioproducts were prepared. Bioproduct initial concentration was 2%. Each of these bioproduct aqueous solutions was extracted in a pressure vessel by mixing with 100 g of extractant composed of 80% 1-butene (the hydrocarbon) and 20% dimethylether (the oxygenated compound) at ambient temperature. The amount of formed extract and formed raffinate and the concentration (conc.) of the bioproduct in each were determined. Theses concentrations were used to calculate the bioproduct distribution coefficient (DC). Also determined was the concentration of DME in the raffinate. Table 2 compares the found distribution coefficients to those of extracting with an extractant composed of 100% DME.

For data set [2] the following is noted: 25° C.
For data set [3] the following is noted: 25° C.; cited from earlier work.
Data set [4] is described as follows: Effect of DME/1-butene ratio in the extractant on n-butanol extraction (Example 10). It counts as physicochemical. The following applies: 1:1 w/w, room temperature; for DC: 2% n-butanol in water; for Butanol extraction yield: single stage. How it is done:
Extractant to aqueous solution weight/weight ratio was 1 to 1. Distribution coefficients, extractant concentration in the raffinate and extraction yield (single stage extraction at the selected extractant/aqueous solution weight/weight ratio) were determined and are summarized in Table 3.

Setting [5] is: extractant 20% DME + 80% 1-butene.
[6] abbreviates: extractant 40% DME + 60% 1-butene.
[7] abbreviates: extractant 60% DME + 40% 1-butene.
Where [8] appears, read: extractant 80% DME + 20% 1-butene.

n-butanol: the “Raffinate Bioproduct conc. (%)” value in data set [1] (100 g of 2% aqueous solution mixed with 100 g extractant of 80% 1-butene + 20% DME, ambient temperature, raffinate phase) is given as 0.77%. Further, the “Extract Bioproduct conc. (%)” value in data set [1] (100 g of 2% aqueous solution mixed with 100 g extractant of 80% 1-butene + 20% DME, pressure vessel, ambient temperature, extract phase) stood at 1.27%. The “DC (bioproduct distribution coefficient)” value in data set [1] (extract/raffinate, extractant 80% 1-butene + 20% DME, ambient temperature (Table 1)) was 1.63. Also, in data set [1] (extractant 20% DME + 80% 1-butene (Table 2)), the “Distribution coefficient, 20% DME + 80% 1-Butene” value is 1.63. Further, in data set [1] (extractant 100% DME (Table 2)), the “Distribution coefficient, 100% DME” value was 2.92. The “n-butanol/water weight ratio in saturated aqueous solution” value in data set [2] is listed as “about 0.079”. In data set [3], the “n-butanol content of saturated aqueous solution” value is “about 7.3 wt %”. Also, the DC in data set [4] (setting [5]) is on record as 1.66; in data set [4] (setting [6]) it was 2.22; in data set [4] (setting [7]), 2.71; in data set [4] (setting [8]), 3.02; in data set [4] (extractant 100% DME), 2.92. For the same substance, the Butanol extraction yield is 58.81% in data set [4] (setting [5]); 63.49% in data set [4] (setting [6]); 65.47% in data set [4] (setting [7]); 64.68% in data set [4] (setting [8]); 57.98% in data set [4] (extractant 100% DME).
